Test results: US6172038A, “Antipathogenic peptides and compositions comprising them” (priority 1996, dated 2001)

Columns and labels:
[1] = tested on: human red blood cells (hRBC); settings: human erythrocytes (Oren and Shai, 1996); cited from earlier work
[2] = tested on: human red blood cells (hRBC); assay: Hemolysis of human red blood cells; type: cell-based; settings: up to maximum concentration tested (50 μM)
Description: (ix) Hemolysis of human red blood cells.

Row | Structure (SMILES) | fold less hemolytic than melittin [1] | hemolytic activity (dose response) [2]
1 | CC[C@H](C)[C@H](NC(=O)[C@H](CCCCN)NC(=O)[C@@H]1CCCN1C(=O)[C@@H](NC(=O)[C@H](CC(C)C)NC(=O)[C@H](C)NC(=O)[C@H](Cc1ccccc1)NC(=O)[C@H](Cc1ccccc1)NC(=O)CN)[C@@H](C)CC)C(=O)N[C@H](C(=O)N[C@@H](CO)C(=O)N[C@@H](CO)C(=O)N1CCC[C@H]1C(=O)N[C@@H](CC(C)C)C(=O)N[C@@H](Cc1ccccc1)C(=O)N[C@@H](CCCCN)C(=O)N[C@H](C(=O)N[C@@H](CC(C)C)C(=O)N[C@@H](CC(C)C)C(=O)N[C@@H](CO)C(=O)N[C@@H](C)C(=O)N[C@H](C(=O)NCC(=O)N[C@@H](CO)C(=O)N[C@@H](C)C(=O)N[C@@H](CC(C)C)C(=O)N[C@@H](CO)C(=O)N[C@@H](CO)C(=O)N[C@@H](CO)C(=O)NCC(=O)NCC(=O)N[C@@H](CCC(N)=O)C(=O)N[C@@H](CCC(=O)O)C(=O)O)C(C)C)[C@@H](C)O)[C@@H](C)CC [Pardaxin] | 40-100 fold | –
2 | CC[C@@H](C)[C@@H](NC(=O)[C@H](CC(C)C)NC(=O)[C@H](C)NC(=O)[C@@H]1CCCN1C(=O)[C@H](CC(C)C)NC(=O)CNC(=O)[C@@H](NC(=O)[C@@H](NC(=O)[C@H](CC(C)C)NC(=O)[C@H](NC(=O)[C@H](CCCCN)NC(=O)[C@H](CC(C)C)NC(=O)[C@H](NC(=O)[C@H](C)NC(=O)CNC(=O)[C@@H](NC(=O)CN)[C@@H](C)CC)C(C)C)C(C)C)[C@@H](C)O)[C@@H](C)O)C(=O)N[C@@H](CO)C(=O)N[C@@H](Cc1c[nH]c2ccccc12)C(=O)N[C@H](C(=O)N[C@H](CCCCN)C(=O)N[C@@H](CCCNC(=N)N)C(=O)N[C@@H](CCCCN)C(=O)N[C@@H](CCCNC(=N)N)C(=O)N[C@@H](CCC(N)=O)C(=O)N[C@@H](CCC(N)=O)C(N)=O)[C@@H](C)CC [Peptide 18] | – | practically devoid of hemolytic activity
